System: hESC-CMs
Assay: α-actinin immunostaining for sarcomeric integrity
Assay type: cell-based, human
Protocol: hESC-CMs were permeabilized using 0.1% Triton X-100 (Thermo Fisher Scientific, USA). After permeabilizing for 15 minutes, cells were washed three times in PBS, and further permeabilization was blocked by incubating cells in PBS with 10% FBS (Hyclone, USA) for 1 hour at room temperature. Cells were incubated with the primary anti-actinin antibody (1:400) (Abcam, UK) and diluted in PBS with 10% FBS overnight. Cells were then washed three times with PBS and incubated with a goat anti-mouse IgG1 secondary antibody (1:1000 diluted in PBS with 10% FBS) (Thermo Fisher Scientific, USA) for 1 hour at room temperature. Finally, cells were washed twice with PBS and mounted using ibidi mounting medium with DAPI (Ibidi, Germany). Microscopic images were acquired using the DMi8s Research Inverted Thunder Imager Live Cell System (Leica, Germany) at 20×, 40×, and 100× magnification.

C[C@@H](CN1CC(=O)NC(=O)C1)N1CC(=O)NC(=O)C1.Cl [Dex, 4,4′-[(1S)-1-Methyl-1,2-ethanediyl]bis-2,6-piperazinedione hydrochloride, reference compound]
sarcomeric damage (α-actinin immunostaining): sarcomeric damage was evidently attenuated
